Assay results taken from patent US5633144A, “Assay pad and method for determination of the presence of total coliforms” (priority 1994, dated 1997).

Test system: beta-galactosidase
Assay: Effect of heavy metals and other toxicants on beta-galactosidase activity
Settings: eliminated by adding a reducing agent such as sodium thiosulfate
Excerpt: Therefore, in the example described above, fluorescence reduction resulting from exposure of beta-galactosidase to the test sample can be indicative of heavy metal pollution in the sample. Advantageously, it has been determined that beta-galactosidase activity is not inhibited by pollutants or toxicants other than heavy metals. […] Although strong oxidants such as chlorine may slow beta-galactosidase activity, the effect of such compounds can be rapidly and conveniently eliminated by adding a reducing agent such as sodium thiosulfate. Therefore, the novel assay and kit described here provide very selective means for detecting the presence of heavy metals even when the metals are mixed with other toxicants.

chlorine
effect on beta-galactosidase activity (in words): may slow beta-galactosidase activity
